Test results taken from patent US8912176B2 (Evotec AG, priority 2009, dated 2014).

Sequences of proteins named here, by UniProt entry; tags and fusion partners are left off. A change or cut given only in a name is not applied to a line headed by its entry.
UniProt Q9Y5N1: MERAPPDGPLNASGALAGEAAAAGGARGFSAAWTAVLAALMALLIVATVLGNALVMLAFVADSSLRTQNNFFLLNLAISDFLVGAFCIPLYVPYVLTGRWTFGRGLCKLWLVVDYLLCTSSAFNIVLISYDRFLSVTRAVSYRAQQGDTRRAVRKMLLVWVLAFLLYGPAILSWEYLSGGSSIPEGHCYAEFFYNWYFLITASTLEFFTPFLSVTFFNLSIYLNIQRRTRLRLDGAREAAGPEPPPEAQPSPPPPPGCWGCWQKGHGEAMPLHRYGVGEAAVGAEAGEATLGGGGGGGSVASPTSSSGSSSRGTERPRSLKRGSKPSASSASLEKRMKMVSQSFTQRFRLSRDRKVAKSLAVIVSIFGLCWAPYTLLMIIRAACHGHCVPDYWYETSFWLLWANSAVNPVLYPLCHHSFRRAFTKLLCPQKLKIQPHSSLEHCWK

Biological target: human H3 receptor (Homo sapiens, UniProt Q9Y5N1)
Experiment: cAMP quantification assay for human H3 receptor (DiscoveRx cAMP XS+)
Conditions: read-out: Potency Range (IC50 values); CHO-K1 cells expressing human H3 receptors; inhibition of agonist-induced cAMP decrease; 100 nM histamine, 10 μM forskolin

## Cc1ccc(OC(=O)N2CC(C(=O)N3CCCN(C4CCC4)CC3)C2)cn1
  IC50: < 50 nM
